Literature values as cited in patent US9808500B2, “Antithrombotic nanoparticle” (Washington University, priority 2009, dated 2017).

Molecular target: thrombin (Homo sapiens, UniProt P00734)
Conditions: thrombin inhibitor, quoted; cited from earlier work

In the case of `Cc1nc(N)ccc1CNC(=O)Cn1c(C)cnc(NCCc2ccccc2)c1=O`, the Ki is listed as 0.8 nM.
